This assay concerns the target Dual specificity tyrosine-phosphorylation-regulated kinase 1A (Homo sapiens, UniProt Q13627). Description: Inhibition of DYRK1A (unknown origin) extracted from Escherichia coli BL21 (DE3) cells measured for 60 mins by FRET assay.

Data on one molecule can be found in ChEMBL document CHEMBL6083232, “A review on synthetic inhibitors of dual-specific tyrosine phosphorylation-regulated kinase 1A (DYRK1A) for the treatment of Alzheimer's disease (AD)” (Bioorg Med Chem, 2024).

Structures are written as SMILES.

A word on the IC50: it is the concentration that inhibits the measured activity by half. Low values mean higher potency, high ones lower potency. In turn, `CCN1/C(=C/C(C)=O)Sc2ccc(OC)cc21` showed an IC50 of 0.93 nM.
